The subject of the assay is CTLL-2. Briefly: IL-2 bioactivity, CTLL-2 proliferation (3H-thymidine incorporation). It is filed as cell-based, mouse. Conditions: produced by HA-L2 cells; vs recombinant IL-2 from E. coli. The procedure: To measure the bioactivity of recombinant hIL-2 and mIL-2 produced from the HA-L2 cells, cell proliferation assay is performed using a murine cytotoxic T-cell line derived from C57/Bl/6 mouse strain, CTLL-2, which constitutively express IL-2 receptors. CTLL-2 cell growth depends greatly on the presence of IL-2. The bioactivity of IL-2 is determined by the level of ^3H-thymidine incorporation into the DNA of proliferating cells. Due to >60% homology between mouse and human IL-2, the cell line responds to both hIL-2 and mIL-2 in a dose dependent manner in the concentration range of approximately 50 pg/mL to 50 ng/mL. […] In addition, the level of CD expression from pBA9b-IFNg-yCD2 transduced HA-L2 cells is also detected by immunoblotting using an antibody against CD.

Consider “hIL-2: recombinant human IL-2 produced by the HA-L2 cells”, for which the IL-2 bioactivity entry is recorded as “comparable”.

These data come from US11230719B2, “Retroviral vector having immune-stimulating activity” (DENOVO BIOPHARMA LLC, priority 2014, dated 2022).
